The list is not random: actives were taken first. Their share in the collection is about 13%.
G9a block: blocks human histone lysine methyltransferase G9a. Q96KQ7. G9a H3K9 monomethylation, AlphaScreen, 2 h. Potency, µM (highest dose often 102 µM), for the others: top-dose activity, negative = inhibition, usual class: inhibitors. 350,000 compounds, 8.8% hits. AID 504332; further: potency means the concentration at half of the fitted maximal effect; on the % scale 0 is the no-effect control and ±100 the full control effect; nearly all actives have a fitted effect of over 75% in size
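G9a (20 nM) preincubated 15 min RT with compounds, then 500 nM biotinylated H3K9 peptide and 20 uM SAM added; 2 h RT reaction. Monomethyl-H3K9 product detected by AlphaScreen with anti-H3K9me1 antibody, streptavidin donor and anti-rabbit IgG acceptor beads.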
miR-21 reporter: miR-21 reporter, rising signal | AID 2288 | HeLa miR-21 FLuc reporter, luciferase, 48 h | 340,000 tested, under 10 active | Potency, µM (titrated, usually from 38.3 µM), for the others: at the top dose reporter change, positive = more light; active = well fitted rising curve with a large enough effect; inconclusive = small, poorly fitted or top-dose-only effect; inactive = no such curve, though single readings can be large or run the other way;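 also: % of control where 0% means no effect; miR-21 action dims this reporter so a rising signal means less miR-21 action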
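HeLa cells endogenously expressing miR-21, stably carrying CMV-driven firefly luciferase with a downstream miR-21 binding site, 2000 cells/well. Titrations up to approximately 40 uM, 48 hours; luciferase luminescence read.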
ALDH1A1 inh: ALDH1A1 (human) enzyme inhibition; Potency, µM (titrated, usually from 75.3 µM), for the others: at the top dose activity, negative = inhibition, hits mostly inhibitors; 220,000 compounds, 7.3% hits; Purified ALDH1A1, NADH fluorescence, propionaldehyde substrate; active means well fitted inhibition curve with a large enough effect, not every such curve was filed as active; inconclusive means small, poorly fitted or top-dose-only effect, or another doubt; inactive means no such curve, though single readings can be large or run the other way;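 further: potency means the concentration at half of the fitted maximal effect; plate controls were no enzyme wells and a reference inhibitor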
Lamin A splicing: LMNA splicing modulation; Potency, µM (top dose mostly 46.1 µM), for the others: top-dose ratio change, negative = inhibition, actives largely listed as inhibitors; HeLa LMNA splicing GFP/RFP minigene ratio, 48 h; AID 1487; 200,000 compounds, 0.01% hits; active means well fitted inhibition curve with a large enough effect in the signal ratio, with a control signal flat, not every such curve was filed as active; inconclusive means small, poorly fitted or top-dose-only effect, or effect the other way, or a change in a side signal; the % refers to the signal ratio; further: potency means the concentration at half of the fitted maximal effect; on the % scale 0 is the no-effect control and ±100 the full control effect
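S3 HeLa stable clones carrying a lamin A-EGFP splicing minigene plus DsRed2 were seeded at 600 cells/well in Opti-MEM with 2% FBS, pin-dosed and incubated 48 h at 37°C. Acumen cytometry (488 nm) gave the GFP/RFP total-intensity ratio.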
Sfp inh: inhibitors of Bacillus subtilis Sfp phosphopantetheinyl transferase; Q9F4F7; Biochemical Sfp PPTase activity, qHTS; Potency, µM, inactives show max response, negative = inhibition, actives largely listed as inhibitors; hit rate 3.5% among 310,000; AID 1490; active means well fitted inhibition curve with a large enough effect; inconclusive means small, poorly fitted or top-dose-only effect, or another doubt; inactive means no such curve, though single readings can be large or run the other way;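 further: the enzyme is Sfp with the accession as filed and its product quenches rhodamine fluorescence; potency means the concentration at half of the fitted maximal effect; 0% = enzyme reaction without inhibitor and -100% = no enzyme wells; top concentration of the series not given in the record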
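Buffer: 50 mM Hepes-Na pH 7.6, 10 mM MgCl2, 0.01% Nonidet P-40, 0.01% BSA. Enzyme 15 nM, pre-exposed to compound 15 min; substrates then added and fluorescence change tracked over 30 min.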
KDM4E inh: inhibitors of human JMJD2E histone demethylase. Potency, µM (highest dose often 57.1 µM), inactives show top-dose activity change, negative = inhibition, hits mostly inhibitors. B2RXH2. 230,000 compounds, 1.6% hits. JMJD2E catalytic domain, FDH-coupled NADH fluorescence (FDH is formaldehyde dehydrogenase). AID 2147; active means well fitted inhibition curve with a large enough effect, not every such curve was filed as active; inconclusive means small, poorly fitted or top-dose-only effect, or another doubt; inactive means no such curve, though single readings can be large or run the other way;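 further: potency means the concentration at half of the fitted maximal effect; 0% = wells with enzyme and -100% = buffer wells without enzyme; nearly all actives have a fitted effect of over 50% in size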
Starred values were filed as active, the others as inactive; [ ] = another dose, or the depositor's remark. Unless noted, the call rests on the fitted dose curve; in most records, active means well fitted curve in the direction sought with a large enough effect; inconclusive means small, poorly fitted or top-dose-only effect, or another doubt; inactive means no such curve, though single readings can be large; an effect the other way counts as inactive or inconclusive.

How did O=C(NCc1cccnc1)/C(=C\c1ccc(-c2ccc(Br)cc2)o1)S(=O)(=O)c1ccccc1 do in these assays?
G9a block: 14.1µM*; miR-21 reporter: inconclusive; ALDH1A1 inh: 3.55µM*; Lamin A splicing: inconclusive; Sfp inh: 2.0%; KDM4E inh: inconclusive

What do the screens show for `O=C(NCc1cccnc1)/C(=C/c1ccc(-c2ccc(Cl)cc2)o1)S(=O)(=O)c1ccccc1`?
G9a block: -0.4%[59 µM]; miR-21 reporter: inconclusive; ALDH1A1 inh: inconclusive; Lamin A splicing: inconclusive; Sfp inh: -12.0%; KDM4E inh: -2.2%

What do the screens show for `COc1c(O)cc2oc3cc(O)c(CC=C(C)C)c(O)c3c(=O)c2c1CC=C(C)C`?
ALDH1A1 inh: -1.8%; Lamin A splicing: inconclusive; Sfp inh: 2.6%; KDM4E inh: 1.0%

Results for CC(C)=CCc1c(O)cc2oc3c(CC=C(C)C)c(O)c(O)c(CC=C(C)C)c3c(=O)c2c1O ?
G9a block: 17.0%[12.7 µM]; miR-21 reporter: inconclusive; Sfp inh: -4.9%; KDM4E inh: 28.2µM*

How did CCOc1ccccc1NC(=O)Cn1ncc2c(=O)oc3ccc(C)cc3c21 do in these assays?
G9a block: -1.3%[59 µM]; miR-21 reporter: 0.1%

How did Cc1ccsc1/C=N/N1CCOCC1 do in these assays?
G9a block: -1.9%; miR-21 reporter: -6.7%; ALDH1A1 inh: 1.8%; Lamin A splicing: 2.3%[46 µM]; Sfp inh: -16.7%; KDM4E inh: -4.6%

Results for Cc1ccsc1/C=N/n1c(-c2ccco2)n[nH]c1=S ?
G9a block: 0.794µM*; miR-21 reporter: -2.6%; ALDH1A1 inh: 14.1µM*; Lamin A splicing: -4.5%; Sfp inh: -13.8%; KDM4E inh: -13.3%

What do the screens show for `Cc1ccsc1/C=N/n1c(-c2ccccn2)n[nH]c1=S`?
G9a block: 2.24µM*; miR-21 reporter: -7.0%; ALDH1A1 inh: inconclusive; Lamin A splicing: 2.7%; Sfp inh: inconclusive; KDM4E inh: -4.3%

What do the screens show for `Cc1cc(-c2n[nH]c(=S)n2/N=C/c2sccc2C)n[nH]1`?
G9a block: 1.26µM*; miR-21 reporter: -6.0%; ALDH1A1 inh: -3.9%; Lamin A splicing: -5.1%; Sfp inh: inconclusive; KDM4E inh: -7.6%

What do the screens show for `Cc1ccsc1/C=N/n1c(-c2ccncc2)n[nH]c1=S`?
G9a block: 1.12µM*; miR-21 reporter: -4.2%; ALDH1A1 inh: -6.2%; Lamin A splicing: inconclusive; Sfp inh: -4.1%; KDM4E inh: inconclusive

How did Cc1ccc(C)c(N2N=C(C(=O)OCC(=O)N(C)c3ccccc3)CCC2=O)c1 do in these assays?
G9a block: 11.4%

Results for O=C(CSc1n[nH]c(-c2cccnc2)n1)Nc1ccccc1C(F)(F)F ?
G9a block: -6.6%; miR-21 reporter: 1.7%; Sfp inh: 9.5%

How did Cc1ccsc1/C=N/n1c(-c2ccccc2)n[nH]c1=S do in these assays?
G9a block: 1.78µM*; miR-21 reporter: -6.3%; ALDH1A1 inh: inconclusive; Lamin A splicing: 2.1%; Sfp inh: -13.5%; KDM4E inh: -2.6%

What do the screens show for `CCC(Cc1c(I)cc(I)c(O)c1I)C(=O)O` (stereo not given)?
G9a block: inconclusive; Sfp inh: 56.2µM*

Results for Cc1cccc(C(=O)NNc2ncnc3c2cnn3-c2ccc(C)c(Cl)c2)c1 ?
G9a block: 5.3%[59 µM]; miR-21 reporter: -58.7%; Lamin A splicing: -6.7%[46 µM]

How did CN(C(=O)COC(=O)CCc1c[nH]c2ccccc12)c1ccccc1 do in these assays?
G9a block: -23.9%[0.501 µM]

How did O=C1c2ccccc2C(=O)N1OCc1ccccc1[N+](=O)[O-] do in these assays?
G9a block: -20.8%; miR-21 reporter: -15.9%; ALDH1A1 inh: 25.1µM*; Sfp inh: inconclusive; KDM4E inh: -0.8%

How did N#CCc1ccccc1[N+](=O)[O-] do in these assays?
ALDH1A1 inh: 25.1µM*

What do the screens show for `O=C1c2ccccc2S(=O)(=O)N1Cc1ccccc1[N+](=O)[O-]`?
G9a block: 20.7%; miR-21 reporter: -4.9%; Sfp inh: 7.4%

Results for CSc1ncc(Cl)c(C(=O)N(Cc2ccccc2Cl)C2CCS(=O)(=O)C2)n1 (stereo not given) ?
G9a block: 6.9%[59 µM]; miR-21 reporter: -4.5%

How did CCOc1cccc(C2NC(=S)NC(C)=C2C(=O)Nc2ccccc2)c1 (stereo not given) do in these assays?
G9a block: 15.3%[59 µM]; miR-21 reporter: 18.6%; ALDH1A1 inh: 2.24µM*; Lamin A splicing: -24.9%; Sfp inh: 13.8%; KDM4E inh: 1.1%

What do the screens show for `CC1=C(C(=O)Nc2ccccn2)C(c2ccc(Br)cc2)NC(=S)N1` (stereo not given)?
G9a block: inconclusive; miR-21 reporter: -35.2%; ALDH1A1 inh: 0.708µM*; Lamin A splicing: 9.6%; Sfp inh: 10.9%; KDM4E inh: -4.7%

How did CCOc1cc(C2NC(=S)NC(C)=C2C(=O)Nc2ccc(OC)cc2)ccc1O (stereo not given) do in these assays?
G9a block: -4.8%[59 µM]; miR-21 reporter: -7.0%; ALDH1A1 inh: inconclusive; Lamin A splicing: -4.1%; Sfp inh: -5.3%; KDM4E inh: 2.4%

Results for CC1=C(C(=O)Nc2ccccn2)C(c2ccc(Cl)cc2)NC(=S)N1 (stereo not given) ?
G9a block: 17.7%[59 µM]; miR-21 reporter: -40.0%; ALDH1A1 inh: 3.55µM*; Sfp inh: 11.0%; KDM4E inh: inconclusive

What do the screens show for `O=C(NCc1ccco1)c1cnn2c1NC(c1ccc(Br)cc1)CC2C(F)(F)F` (stereo not given)?
G9a block: 50.1µM*; miR-21 reporter: 0.6%; ALDH1A1 inh: 1.7%; Lamin A splicing: inconclusive; Sfp inh: 2.4%; KDM4E inh: 1.6%

What do the screens show for `O=C(c1ccco1)N1CCN(C(=O)c2cnn3c2NC(c2cccs2)CC3C(F)(F)F)CC1` (stereo not given)?
G9a block: 15.9%[59 µM]; miR-21 reporter: 5.4%; ALDH1A1 inh: -1.0%; Lamin A splicing: 2.4%; Sfp inh: 14.9%; KDM4E inh: -2.1%

Results for O=C(c1cnn2c1NC(c1ccco1)CC2C(F)(F)F)N1CCN(c2cccc(Cl)c2)CC1 (stereo not given) ?
G9a block: 10µM*; miR-21 reporter: 25.5%; ALDH1A1 inh: 3.16µM*; Lamin A splicing: inconclusive; Sfp inh: -4.6%; KDM4E inh: -10.0%

Results for COc1ccc(NC(=O)CSc2nc3c(oc4ccccc43)c(=O)n2-c2ccc(C)c(C)c2)cc1 ?
G9a block: -6.4%[59 µM]; miR-21 reporter: 11.1%

Results for Cc1ccc2nc(Cl)c3cc(C(=O)N(C)C4CCCCC4)sc3c2c1 ?
G9a block: 10.9%[59 µM]; miR-21 reporter: -8.8%

Grouped by structure, the entries above with a nitro group on carbon (three)
How did O=C1c2ccccc2C(=O)N1OCc1ccccc1[N+](=O)[O-] do in these assays?
G9a block: -20.8%; miR-21 reporter: -15.9%; ALDH1A1 inh: 25.1µM*; Sfp inh: inconclusive; KDM4E inh: -0.8%

How did N#CCc1ccccc1[N+](=O)[O-] do in these assays?
ALDH1A1 inh: 25.1µM*

What do the screens show for `O=C1c2ccccc2S(=O)(=O)N1Cc1ccccc1[N+](=O)[O-]`?
G9a block: 20.7%; miR-21 reporter: -4.9%; Sfp inh: 7.4%
